Laboratory results: patent publication EP4834897A1, “COMPOUNDS WITH TWO AZAHETEROCYCLES SUBSTITUTED ISOINDOLINONE SKELETON AND USES THEREOF” (dated 2026)

Sequences of proteins named here, by UniProt entry; tags and fusion partners are left off.
UniProt P15170, whole entry: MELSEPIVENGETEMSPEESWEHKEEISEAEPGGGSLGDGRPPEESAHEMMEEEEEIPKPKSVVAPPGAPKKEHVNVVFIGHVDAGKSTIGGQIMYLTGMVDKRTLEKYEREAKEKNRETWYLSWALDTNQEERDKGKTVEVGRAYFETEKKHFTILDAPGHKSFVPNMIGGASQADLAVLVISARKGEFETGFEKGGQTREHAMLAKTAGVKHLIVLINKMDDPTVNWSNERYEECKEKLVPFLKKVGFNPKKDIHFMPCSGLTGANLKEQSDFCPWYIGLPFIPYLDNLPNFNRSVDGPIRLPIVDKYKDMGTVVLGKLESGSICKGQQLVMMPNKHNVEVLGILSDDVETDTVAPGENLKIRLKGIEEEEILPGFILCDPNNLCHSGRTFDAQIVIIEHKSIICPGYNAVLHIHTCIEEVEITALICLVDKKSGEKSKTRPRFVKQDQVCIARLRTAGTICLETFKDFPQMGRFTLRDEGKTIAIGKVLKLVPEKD
UniProt Q96SW2, whole entry: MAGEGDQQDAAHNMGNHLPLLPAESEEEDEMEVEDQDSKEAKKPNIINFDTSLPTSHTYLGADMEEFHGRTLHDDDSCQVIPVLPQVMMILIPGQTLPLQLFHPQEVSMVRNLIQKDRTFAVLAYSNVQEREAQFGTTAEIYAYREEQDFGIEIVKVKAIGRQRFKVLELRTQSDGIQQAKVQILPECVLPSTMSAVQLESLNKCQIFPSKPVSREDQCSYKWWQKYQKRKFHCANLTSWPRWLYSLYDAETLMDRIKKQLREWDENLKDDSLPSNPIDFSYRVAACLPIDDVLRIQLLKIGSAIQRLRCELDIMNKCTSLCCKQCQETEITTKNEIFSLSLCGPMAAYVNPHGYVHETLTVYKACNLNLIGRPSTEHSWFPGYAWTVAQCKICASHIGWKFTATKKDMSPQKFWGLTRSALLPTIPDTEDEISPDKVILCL
UniProt Q9UKS7, whole entry: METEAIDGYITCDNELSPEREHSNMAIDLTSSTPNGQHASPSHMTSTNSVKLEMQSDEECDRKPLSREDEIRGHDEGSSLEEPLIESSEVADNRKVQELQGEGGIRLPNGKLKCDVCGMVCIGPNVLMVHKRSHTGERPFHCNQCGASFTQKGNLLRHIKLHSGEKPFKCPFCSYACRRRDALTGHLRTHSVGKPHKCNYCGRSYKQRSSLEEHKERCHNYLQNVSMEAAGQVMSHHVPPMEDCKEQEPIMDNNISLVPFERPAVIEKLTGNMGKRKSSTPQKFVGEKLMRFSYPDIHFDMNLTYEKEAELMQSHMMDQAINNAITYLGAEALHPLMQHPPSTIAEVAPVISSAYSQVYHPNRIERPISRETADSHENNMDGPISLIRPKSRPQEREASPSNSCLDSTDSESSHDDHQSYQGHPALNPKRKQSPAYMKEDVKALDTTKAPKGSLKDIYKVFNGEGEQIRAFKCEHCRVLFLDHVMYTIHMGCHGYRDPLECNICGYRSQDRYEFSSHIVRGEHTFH
UniProt P30291, whole entry: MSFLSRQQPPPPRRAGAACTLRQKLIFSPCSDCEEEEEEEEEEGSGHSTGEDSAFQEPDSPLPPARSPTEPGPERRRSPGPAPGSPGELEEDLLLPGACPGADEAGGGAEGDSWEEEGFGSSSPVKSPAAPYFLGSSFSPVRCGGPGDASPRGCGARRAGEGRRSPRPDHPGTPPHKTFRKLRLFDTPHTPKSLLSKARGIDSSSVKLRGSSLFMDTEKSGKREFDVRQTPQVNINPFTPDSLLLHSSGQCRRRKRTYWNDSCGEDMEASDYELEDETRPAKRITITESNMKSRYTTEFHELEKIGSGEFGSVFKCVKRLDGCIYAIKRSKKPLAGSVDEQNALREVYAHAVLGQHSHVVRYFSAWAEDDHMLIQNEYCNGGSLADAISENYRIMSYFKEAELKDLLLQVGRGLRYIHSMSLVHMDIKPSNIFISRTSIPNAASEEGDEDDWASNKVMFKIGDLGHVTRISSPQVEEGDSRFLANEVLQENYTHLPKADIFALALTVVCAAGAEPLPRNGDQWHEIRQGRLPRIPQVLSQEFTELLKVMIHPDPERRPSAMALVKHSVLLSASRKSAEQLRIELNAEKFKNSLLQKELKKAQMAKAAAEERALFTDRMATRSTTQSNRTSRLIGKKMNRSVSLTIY
UniProt Q13422, whole entry: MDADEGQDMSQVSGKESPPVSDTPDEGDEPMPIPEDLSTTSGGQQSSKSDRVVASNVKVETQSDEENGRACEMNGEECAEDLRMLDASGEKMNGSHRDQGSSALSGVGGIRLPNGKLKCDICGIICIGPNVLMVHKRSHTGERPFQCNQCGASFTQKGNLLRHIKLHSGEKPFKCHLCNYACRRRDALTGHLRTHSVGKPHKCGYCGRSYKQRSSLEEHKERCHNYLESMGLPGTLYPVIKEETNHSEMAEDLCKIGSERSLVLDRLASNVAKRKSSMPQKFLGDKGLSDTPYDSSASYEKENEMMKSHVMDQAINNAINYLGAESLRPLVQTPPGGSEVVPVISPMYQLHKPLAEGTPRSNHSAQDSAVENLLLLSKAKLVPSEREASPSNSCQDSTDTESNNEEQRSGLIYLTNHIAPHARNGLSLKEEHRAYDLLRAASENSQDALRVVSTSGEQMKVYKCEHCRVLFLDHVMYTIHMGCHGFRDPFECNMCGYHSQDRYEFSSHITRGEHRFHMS
UniProt P48729, whole entry: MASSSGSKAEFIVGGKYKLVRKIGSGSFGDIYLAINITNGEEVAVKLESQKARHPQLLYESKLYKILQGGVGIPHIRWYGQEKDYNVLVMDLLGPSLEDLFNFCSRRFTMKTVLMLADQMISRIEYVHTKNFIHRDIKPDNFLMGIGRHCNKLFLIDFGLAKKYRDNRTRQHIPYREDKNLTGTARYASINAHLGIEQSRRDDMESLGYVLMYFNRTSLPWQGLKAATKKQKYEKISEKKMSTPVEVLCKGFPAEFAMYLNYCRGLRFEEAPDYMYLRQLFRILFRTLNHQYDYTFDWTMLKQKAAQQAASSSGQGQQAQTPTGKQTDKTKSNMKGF
UniProt Q9UKT9, whole entry: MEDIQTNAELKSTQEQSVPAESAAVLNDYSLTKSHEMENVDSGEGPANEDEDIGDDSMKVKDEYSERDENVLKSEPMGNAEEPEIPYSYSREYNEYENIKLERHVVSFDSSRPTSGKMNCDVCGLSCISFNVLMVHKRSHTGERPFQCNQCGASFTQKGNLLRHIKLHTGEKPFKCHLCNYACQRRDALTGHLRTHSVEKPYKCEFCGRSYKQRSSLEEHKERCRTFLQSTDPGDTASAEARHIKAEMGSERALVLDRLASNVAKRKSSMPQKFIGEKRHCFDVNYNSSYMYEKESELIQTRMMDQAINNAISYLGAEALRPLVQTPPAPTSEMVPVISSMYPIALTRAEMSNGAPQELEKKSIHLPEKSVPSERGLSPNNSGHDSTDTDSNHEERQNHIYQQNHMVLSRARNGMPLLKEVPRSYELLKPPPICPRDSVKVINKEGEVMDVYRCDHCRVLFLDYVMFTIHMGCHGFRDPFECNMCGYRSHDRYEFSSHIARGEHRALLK
UniProt Q16531, whole entry partner: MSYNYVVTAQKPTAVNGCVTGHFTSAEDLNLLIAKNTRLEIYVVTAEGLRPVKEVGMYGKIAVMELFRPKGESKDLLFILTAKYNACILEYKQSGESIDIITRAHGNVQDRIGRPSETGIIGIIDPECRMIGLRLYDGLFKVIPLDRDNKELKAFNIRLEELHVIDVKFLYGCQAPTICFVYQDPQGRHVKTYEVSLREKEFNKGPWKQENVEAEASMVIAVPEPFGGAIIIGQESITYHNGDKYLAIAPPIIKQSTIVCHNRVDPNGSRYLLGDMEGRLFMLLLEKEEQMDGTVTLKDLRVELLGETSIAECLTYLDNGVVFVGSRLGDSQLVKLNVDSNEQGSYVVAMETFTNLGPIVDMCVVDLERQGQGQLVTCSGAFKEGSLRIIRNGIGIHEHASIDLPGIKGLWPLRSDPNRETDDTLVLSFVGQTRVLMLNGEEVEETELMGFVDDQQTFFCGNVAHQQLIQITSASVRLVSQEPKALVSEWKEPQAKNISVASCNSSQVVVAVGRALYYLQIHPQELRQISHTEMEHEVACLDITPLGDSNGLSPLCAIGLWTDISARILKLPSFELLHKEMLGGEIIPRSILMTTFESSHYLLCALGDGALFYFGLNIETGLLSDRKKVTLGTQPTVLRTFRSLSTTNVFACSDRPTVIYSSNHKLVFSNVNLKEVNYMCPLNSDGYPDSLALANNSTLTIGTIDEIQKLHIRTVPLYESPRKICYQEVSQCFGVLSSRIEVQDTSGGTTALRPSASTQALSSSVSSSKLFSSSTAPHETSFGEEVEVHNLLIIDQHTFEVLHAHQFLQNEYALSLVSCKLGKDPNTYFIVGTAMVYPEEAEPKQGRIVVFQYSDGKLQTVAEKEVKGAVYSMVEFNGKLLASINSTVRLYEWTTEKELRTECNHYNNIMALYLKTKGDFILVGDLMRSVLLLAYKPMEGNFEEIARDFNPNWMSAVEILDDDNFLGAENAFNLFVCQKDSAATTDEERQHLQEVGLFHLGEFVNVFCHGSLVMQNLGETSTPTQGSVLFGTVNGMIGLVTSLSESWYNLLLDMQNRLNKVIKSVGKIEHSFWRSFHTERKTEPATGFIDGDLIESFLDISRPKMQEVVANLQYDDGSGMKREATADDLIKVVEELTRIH

Target: GSPT1 (Homo sapiens, UniProt P15170+Q96SW2)
Assay: Western blot assay of substrate protein degradation in hPBMCs
Conditions: 24 hours treatment, compounds at 50 nM and 500 nM (concentration behind the class not stated)

SMILES | substrate protein remaining % (GSPT1)
O=C1CCC(N2C(=O)c3ccc(C(=O)N4CCC(N5CCN(c6noc7cc(F)ccc67)CC5)C(F)(F)C4)cc3C2=O)C(=O)N1 (stereo not drawn) | A (0% ≤ substrate protein remaining % ≤ 80%)
O=C1CCC(N2Cc3cc(C(=O)N4CCC(N5CCN(c6cccc(Cl)c6Cl)CC5)C(F)(F)C4)ccc3C2=O)C(=O)N1 (stereo not drawn) | A (0% ≤ substrate protein remaining % ≤ 80%)
O=C1CCC(N2Cc3cccc(C(=O)N4CCC(N5CCN(C(c6ccccc6)c6ccccn6)CC5)C(F)(F)C4)c3C2=O)C(=O)N1 (stereo not drawn) | A (0% ≤ substrate protein remaining % ≤ 80%)
O=C1CCC(N2C(=O)c3ccc(C(=O)N4CCC(N5CCN(c6cccc(Cl)c6Cl)CC5)C(F)(F)C4)cc3C2=O)C(=O)N1 (stereo not drawn) | A (0% ≤ substrate protein remaining % ≤ 80%)
O=C1CCC(N2C(=O)c3cccc(CN4CCC(N5CCN(c6noc7cc(F)ccc67)CC5)C(F)(F)C4)c3C2=O)C(=O)N1 (stereo not drawn) | B (80%< substrate protein remaining %≤ 100%)
O=C1CCC(N2C(=O)c3cccc(C(=O)N4CCC(N5CC=C(c6cccc(Cl)c6Cl)CC5)C(F)(F)C4)c3C2=O)C(=O)N1 (stereo not drawn) | A (0% ≤ substrate protein remaining % ≤ 80%)

Target: IKZF2 (Homo sapiens, UniProt Q96SW2+Q9UKS7)
Assay: as above
Conditions: 24 hours treatment, compounds at 50 nM and 500 nM (concentration behind the class not stated)

SMILES | substrate protein remaining % (IKZF2)
O=C1CCC(N2C(=O)c3ccc(C(=O)N4CCC(N5CCN(c6noc7cc(F)ccc67)CC5)C(F)(F)C4)cc3C2=O)C(=O)N1 (stereo not drawn) | B (80%< substrate protein remaining %≤ 100%)
O=C1CCC(N2Cc3cc(C(=O)N4CCC(N5CCN(c6cccc(Cl)c6Cl)CC5)C(F)(F)C4)ccc3C2=O)C(=O)N1 (stereo not drawn) | B (80%< substrate protein remaining %≤ 100%)
O=C1CCC(N2Cc3cccc(C(=O)N4CCC(N5CCN(C(c6ccccc6)c6ccccn6)CC5)C(F)(F)C4)c3C2=O)C(=O)N1 (stereo not drawn) | B (80%< substrate protein remaining %≤ 100%)
O=C1CCC(N2C(=O)c3ccc(C(=O)N4CCC(N5CCN(c6cccc(Cl)c6Cl)CC5)C(F)(F)C4)cc3C2=O)C(=O)N1 (stereo not drawn) | B (80%< substrate protein remaining %≤ 100%)
O=C1CCC(N2C(=O)c3cccc(CN4CCC(N5CCN(c6noc7cc(F)ccc67)CC5)C(F)(F)C4)c3C2=O)C(=O)N1 (stereo not drawn) | A (0% ≤ substrate protein remaining % ≤ 80%)
O=C1CCC(N2C(=O)c3cccc(C(=O)N4CCC(N5CC=C(c6cccc(Cl)c6Cl)CC5)C(F)(F)C4)c3C2=O)C(=O)N1 (stereo not drawn) | B (80%< substrate protein remaining %≤ 100%)

Target: WEE1 (Homo sapiens, UniProt P30291+Q96SW2)
Assay: as above
Conditions: 24 hours treatment, compounds at 50 nM and 500 nM (concentration behind the class not stated)

SMILES | substrate protein remaining % (WEE1)
O=C1CCC(N2C(=O)c3ccc(C(=O)N4CCC(N5CCN(c6noc7cc(F)ccc67)CC5)C(F)(F)C4)cc3C2=O)C(=O)N1 (stereo not drawn) | A (0% ≤ substrate protein remaining % ≤ 80%)
O=C1CCC(N2Cc3cc(C(=O)N4CCC(N5CCN(c6cccc(Cl)c6Cl)CC5)C(F)(F)C4)ccc3C2=O)C(=O)N1 (stereo not drawn) | B (80%< substrate protein remaining %≤ 100%)
O=C1CCC(N2Cc3cccc(C(=O)N4CCC(N5CCN(C(c6ccccc6)c6ccccn6)CC5)C(F)(F)C4)c3C2=O)C(=O)N1 (stereo not drawn) | B (80%< substrate protein remaining %≤ 100%)
O=C1CCC(N2C(=O)c3ccc(C(=O)N4CCC(N5CCN(c6cccc(Cl)c6Cl)CC5)C(F)(F)C4)cc3C2=O)C(=O)N1 (stereo not drawn) | B (80%< substrate protein remaining %≤ 100%)
O=C1CCC(N2C(=O)c3cccc(CN4CCC(N5CCN(c6noc7cc(F)ccc67)CC5)C(F)(F)C4)c3C2=O)C(=O)N1 (stereo not drawn) | B (80%< substrate protein remaining %≤ 100%)
O=C1CCC(N2C(=O)c3cccc(C(=O)N4CCC(N5CC=C(c6cccc(Cl)c6Cl)CC5)C(F)(F)C4)c3C2=O)C(=O)N1 (stereo not drawn) | A (0% ≤ substrate protein remaining % ≤ 80%)

Target: IKZF1 (Homo sapiens, UniProt Q13422+Q96SW2)
Assay: as above
Conditions: 24 hours treatment, compounds at 50 nM and 500 nM (concentration behind the class not stated)

SMILES | substrate protein remaining % (IKZF 1)
O=C1CCC(N2C(=O)c3ccc(C(=O)N4CCC(N5CCN(c6noc7cc(F)ccc67)CC5)C(F)(F)C4)cc3C2=O)C(=O)N1 (stereo not drawn) | B (80%< substrate protein remaining %≤ 100%)
O=C1CCC(N2Cc3cc(C(=O)N4CCC(N5CCN(c6cccc(Cl)c6Cl)CC5)C(F)(F)C4)ccc3C2=O)C(=O)N1 (stereo not drawn) | B (80%< substrate protein remaining %≤ 100%)
O=C1CCC(N2Cc3cccc(C(=O)N4CCC(N5CCN(C(c6ccccc6)c6ccccn6)CC5)C(F)(F)C4)c3C2=O)C(=O)N1 (stereo not drawn) | B (80%< substrate protein remaining %≤ 100%)
O=C1CCC(N2C(=O)c3ccc(C(=O)N4CCC(N5CCN(c6cccc(Cl)c6Cl)CC5)C(F)(F)C4)cc3C2=O)C(=O)N1 (stereo not drawn) | B (80%< substrate protein remaining %≤ 100%)
O=C1CCC(N2C(=O)c3cccc(CN4CCC(N5CCN(c6noc7cc(F)ccc67)CC5)C(F)(F)C4)c3C2=O)C(=O)N1 (stereo not drawn) | B (80%< substrate protein remaining %≤ 100%)
O=C1CCC(N2C(=O)c3cccc(C(=O)N4CCC(N5CC=C(c6cccc(Cl)c6Cl)CC5)C(F)(F)C4)c3C2=O)C(=O)N1 (stereo not drawn) | B (80%< substrate protein remaining %≤ 100%)

Target: CK1α (Homo sapiens, UniProt P48729+Q96SW2)
Assay: as above
Conditions: 24 hours treatment, compounds at 50 nM and 500 nM (concentration behind the class not stated)

SMILES | substrate protein remaining % (CK1a)
O=C1CCC(N2C(=O)c3ccc(C(=O)N4CCC(N5CCN(c6noc7cc(F)ccc67)CC5)C(F)(F)C4)cc3C2=O)C(=O)N1 (stereo not drawn) | B (80%< substrate protein remaining %≤ 100%)
O=C1CCC(N2Cc3cc(C(=O)N4CCC(N5CCN(c6cccc(Cl)c6Cl)CC5)C(F)(F)C4)ccc3C2=O)C(=O)N1 (stereo not drawn) | A (0% ≤ substrate protein remaining % ≤ 80%)
O=C1CCC(N2Cc3cccc(C(=O)N4CCC(N5CCN(C(c6ccccc6)c6ccccn6)CC5)C(F)(F)C4)c3C2=O)C(=O)N1 (stereo not drawn) | B (80%< substrate protein remaining %≤ 100%)
O=C1CCC(N2C(=O)c3ccc(C(=O)N4CCC(N5CCN(c6cccc(Cl)c6Cl)CC5)C(F)(F)C4)cc3C2=O)C(=O)N1 (stereo not drawn) | B (80%< substrate protein remaining %≤ 100%)
O=C1CCC(N2C(=O)c3cccc(CN4CCC(N5CCN(c6noc7cc(F)ccc67)CC5)C(F)(F)C4)c3C2=O)C(=O)N1 (stereo not drawn) | B (80%< substrate protein remaining %≤ 100%)
O=C1CCC(N2C(=O)c3cccc(C(=O)N4CCC(N5CC=C(c6cccc(Cl)c6Cl)CC5)C(F)(F)C4)c3C2=O)C(=O)N1 (stereo not drawn) | B (80%< substrate protein remaining %≤ 100%)

Target: IKZF3 (Homo sapiens, UniProt Q96SW2+Q9UKT9)
Assay: as above
Conditions: 24 hours treatment, compounds at 50 nM and 500 nM (concentration behind the class not stated)

SMILES | substrate protein remaining % (IKZF3)
O=C1CCC(N2C(=O)c3ccc(C(=O)N4CCC(N5CCN(c6noc7cc(F)ccc67)CC5)C(F)(F)C4)cc3C2=O)C(=O)N1 (stereo not drawn) | B (80%< substrate protein remaining %≤ 100%)
O=C1CCC(N2Cc3cc(C(=O)N4CCC(N5CCN(c6cccc(Cl)c6Cl)CC5)C(F)(F)C4)ccc3C2=O)C(=O)N1 (stereo not drawn) | B (80%< substrate protein remaining %≤ 100%)
O=C1CCC(N2Cc3cccc(C(=O)N4CCC(N5CCN(C(c6ccccc6)c6ccccn6)CC5)C(F)(F)C4)c3C2=O)C(=O)N1 (stereo not drawn) | A (0% ≤ substrate protein remaining % ≤ 80%)
O=C1CCC(N2C(=O)c3ccc(C(=O)N4CCC(N5CCN(c6cccc(Cl)c6Cl)CC5)C(F)(F)C4)cc3C2=O)C(=O)N1 (stereo not drawn) | B (80%< substrate protein remaining %≤ 100%)
O=C1CCC(N2C(=O)c3cccc(CN4CCC(N5CCN(c6noc7cc(F)ccc67)CC5)C(F)(F)C4)c3C2=O)C(=O)N1 (stereo not drawn) | A (0% ≤ substrate protein remaining % ≤ 80%)
O=C1CCC(N2C(=O)c3cccc(C(=O)N4CCC(N5CC=C(c6cccc(Cl)c6Cl)CC5)C(F)(F)C4)c3C2=O)C(=O)N1 (stereo not drawn) | B (80%< substrate protein remaining %≤ 100%)
